One compound from ChEMBL document CHEMBL3425427, “Pyrido[4,3-e][1,2,4]triazolo[4,3-a]pyrazines as Selective, Brain Penetrant Phosphodiesterase 2 (PDE2) Inhibitors” (ACS Med Chem Lett, 2015) can be followed below.

SMILES strings stand for the structures.

For the test, the target named is T1, cAMP and cAMP-inhibited cGMP 3',5'-cyclic phosphodiesterase 10A (Rattus norvegicus, UniProt Q9QYJ6).
T1 sequence (Q9QYJ6 whole entry): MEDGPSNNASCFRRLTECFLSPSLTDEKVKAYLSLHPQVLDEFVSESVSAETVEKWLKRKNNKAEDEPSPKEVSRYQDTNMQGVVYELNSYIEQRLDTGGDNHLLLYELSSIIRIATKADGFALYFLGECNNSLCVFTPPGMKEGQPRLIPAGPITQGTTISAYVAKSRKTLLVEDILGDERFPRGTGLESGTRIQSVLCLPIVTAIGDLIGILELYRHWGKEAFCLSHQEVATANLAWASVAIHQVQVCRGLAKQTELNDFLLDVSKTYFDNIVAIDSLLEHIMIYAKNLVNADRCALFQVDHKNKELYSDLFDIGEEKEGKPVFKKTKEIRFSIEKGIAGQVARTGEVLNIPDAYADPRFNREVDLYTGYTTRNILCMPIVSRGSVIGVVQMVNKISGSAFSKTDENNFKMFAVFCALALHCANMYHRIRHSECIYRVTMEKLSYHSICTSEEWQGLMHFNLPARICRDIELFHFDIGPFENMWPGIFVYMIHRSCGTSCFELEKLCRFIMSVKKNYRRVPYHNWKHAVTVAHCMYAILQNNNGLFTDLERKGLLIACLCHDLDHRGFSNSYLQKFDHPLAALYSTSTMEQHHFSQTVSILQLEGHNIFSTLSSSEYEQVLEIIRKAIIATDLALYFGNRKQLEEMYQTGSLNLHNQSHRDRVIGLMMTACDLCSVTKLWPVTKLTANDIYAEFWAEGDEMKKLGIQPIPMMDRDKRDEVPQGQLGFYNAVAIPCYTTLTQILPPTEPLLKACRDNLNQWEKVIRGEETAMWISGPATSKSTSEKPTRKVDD
Kind of test: Inhibition of 6-His-tagged rat recombinant PDE10A expressed in Sf9 cells using [3H]cAMP incubated for 60 mins by scintillation proximity assay.

As a reminder, the IC50 is the point on the concentration scale where inhibition reaches its midpoint.

Consider `CCCCOc1ccc(Cl)c(-c2nnc3c(C)nc4ccncc4n23)c1`, for which the IC50 is 5.5 µM.
